Our source for the activity change, negative = inhibition values is PubChem BioAssay AID743255 (National Center for Advancing Translational Sciences (NCATS), 2014).

Chains of the proteins cited; added tags and fusions are not shown. Lines headed by an entry give the natural chain unless they say otherwise; changes in a name come on top.
UniProt O94782: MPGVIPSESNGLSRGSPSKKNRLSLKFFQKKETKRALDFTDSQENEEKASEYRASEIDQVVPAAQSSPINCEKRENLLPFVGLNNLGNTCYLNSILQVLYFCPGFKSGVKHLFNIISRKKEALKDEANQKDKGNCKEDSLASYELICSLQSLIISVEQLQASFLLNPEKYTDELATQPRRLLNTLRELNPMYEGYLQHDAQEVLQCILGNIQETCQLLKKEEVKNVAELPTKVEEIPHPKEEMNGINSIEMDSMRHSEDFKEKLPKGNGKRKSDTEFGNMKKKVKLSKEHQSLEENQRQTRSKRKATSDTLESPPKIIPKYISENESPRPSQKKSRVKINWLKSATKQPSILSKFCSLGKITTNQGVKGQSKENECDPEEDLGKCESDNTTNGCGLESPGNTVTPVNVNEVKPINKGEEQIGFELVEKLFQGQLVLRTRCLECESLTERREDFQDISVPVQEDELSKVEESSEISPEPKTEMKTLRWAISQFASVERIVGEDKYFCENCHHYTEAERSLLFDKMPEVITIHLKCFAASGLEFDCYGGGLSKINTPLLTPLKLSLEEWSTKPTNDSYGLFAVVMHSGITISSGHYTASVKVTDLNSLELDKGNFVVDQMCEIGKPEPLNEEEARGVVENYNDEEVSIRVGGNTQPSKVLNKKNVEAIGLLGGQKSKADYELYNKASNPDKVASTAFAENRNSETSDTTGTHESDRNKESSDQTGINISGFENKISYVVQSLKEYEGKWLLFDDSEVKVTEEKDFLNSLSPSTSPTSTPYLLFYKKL

This is a selection; strong and weak results do not stand in their true shares. Results filed as inconclusive are left out. Calls of active or inactive are those of the source. The call rests on the fitted dose curve; in most records, active means well fitted inhibition curve with a large enough effect; inconclusive means small, poorly fitted or top-dose-only effect; inactive means no such curve, though single readings can be large or run the other way.
On the % scale 0 is the no-effect control and ±100 the full control effect.

This experiment deals with Ubiquitin carboxyl-terminal hydrolase 1 (Homo sapiens) (UniProt O94782). Put plainly: Inhibitors of USP1/UAF1: Primary Screen. Further: nearly all actives have a fitted effect of over 60% in size. The conditions noted are these: recombinant USP1/UAF1, Ub-Rhodamine cleavage fluorescence; at 57.1 µM (top of the series). An excerpt:
Deubiquitinating enzymes (DUBs) are a class of enzymes that can cleave isopeptide bond formed between the C-terminal carboxylate of ubiquitin and a lysine side-chain amino group on the target protein. Among them, ubiquitin specific proteases (USPs) constitute the largest DUB family. Human USPs are emerging as promising targets for pharmacological intervention because of their connection to a number of human diseases, including prostate, colon and breast cancer (1, 2), pediatric acute lymphoblastic leukemia (3), and familial cylindromatosis (4). The advantage of inhibiting USPs lies in the potential specificity of therapeutic intervention that can lead to better efficacy and reduce nonspecific side effects. In a collaboration between the University of Delaware and the NIH Chemical Genomics Center, a high-throughput screen assay was developed to screen for USP1/UAF1 inhibitors. This miniaturized assay has a fluorescent read-out and is used to screen the NIH Molecular Libraries Small Molecule Repository (MLSMR) in order to identify a small molecule that inhibits USP1. NIH Chemical Genomics Center [NCGC] NIH Molecular Libraries Probe Centers Network [MLPCN] MLPCN Grant: DA030552 Assay Submitter (PI): Zhihao Zhuang, University of Delaware 1. Priolo, C., et al. (2006) The isopeptidase USP2a protects human prostate cancer from apoptosis. Cancer Res 66, 8625-8632 2. Popov, N., et al. (2007) The ubiquitin-specific protease USP28 is required for MYC stability. Nat Cell Biol 9, 765-774 3. De Pitta, C., et al. (2005) A leukemia-enriched cDNA microarray platform identifies new transcripts with relevance to the biology of pediatric acute lymphoblastic leukemia. Haematologica 90, 890-898 4. Kovalenko, A., et al. (2003) The tumour suppressor CYLD negatively regulates NF-kappaB signalling by deubiquitination. Nature 424, 801-805
3 microliters of reagents (buffer in columns 3 and 4 as negative control and 1nM USP1/UAF1 complex in columns 1, 2, and 5-48) are dispensed into Greiner black solid bottom 1536-well assay plates. Compounds are then transferred via Kalypsys pin tool equipped with 1536-pin array (10nl slotted pins, V&P Scientific, San Diego, CA). Following an incubation step of 15 min at room temperature, 1ul of Ub-Rho substrate (150nM final concentration) is added to initiate the reaction. The plates are immediately centrifuged at 1000 rpm for 15 seconds, and subsequently transferred to a ViewLux high-throughput CCD imager (PerkinElmer) wherein kinetic measurements of fluorescence are acquired using 480 nm excitation/540 nm emission filter set (6 reads every 60 seconds, see Table 1). All reagents are diluted in an assay buffer consisting of 50mM HEPES (pH 7.8), 0.5mM EDTA, 0.1 mg/ml BSA, 1mM TCEP, and 0.01% Tween-20.
On to `CCCOP(=S)(Nc1nc(N)cc(=O)[nH]1)OCCC`, for which the activity change, negative = inhibition was inactive: -11.1%.
With `Cc1ccc(NCCc2c([N+](=O)[O-])cc([N+](=O)[O-])cc2[N+](=O)[O-])cc1` the figure was inactive: -19%; with `CCOP(=O)(Nc1cccc2ccccc12)OCC`, inactive: -15.9%.
With `COc1cc(C2NCCC3(OCCO3)C2(C)C)cc(OC)c1OC` (stereo unspecified) the figure was inactive: -18%.
Under `CS(=O)(=O)c1ccc(Cl)c(NC(=O)COC(=O)C(O)(c2ccccc2)c2ccccc2)c1` stands inactive: -20.5%; under `O=[As](O)(O)c1cccnc1`, inactive: -22.3%; under `COc1cc(C(=O)NCC2(N3CCOCC3)CCCCC2)cc(Cl)c1OC(C)C`, inactive: -5.97%.
In the case of `O=C(OC1CN2CCC1CC2)c1ccc(Cl)cc1` (stereo unspecified), the activity change, negative = inhibition was inactive: -16.2%.
Consider `Cc1cccc(OCC(=O)OC2CN3CCC2CC3)c1` (stereo unspecified), for which the activity change, negative = inhibition is inactive: 0.69%.
Under `O=[As](O)(c1cccc(O)c1)c1cccc(O)c1` stands inactive: -16.8%.
Under `NC(=O)Nc1ccc([As](=O)(O)O)cc1` stands inactive: -20.6%; under `CN(C(=O)Cc1ccc(Cl)c(Cl)c1)[C@H]1CC[C@@]2(CCCO2)C[C@@H]1N1CCCC1`, inactive: -24.1%.
Under `O=[N+]([O-])c1ccc2c(c1)nnn2O` stands inactive: 0.473%; under `CN(C)C(=O)c1cc([N+](=O)[O-])cc2c1-c1c(cc([N+](=O)[O-])cc1[N+](=O)[O-])C2=O`, inactive: -29.9%; under `CCOP1(=S)c2c(C)nn(CCC#N)c2N=C(c2ccc(F)cc2)N1C` (stereo unspecified), inactive: -14.5%.
For `CN(C(=O)Cc1ccccc1)[C@@H]1CC[C@]2(CCCO2)C[C@H]1N1CCCC1`, the activity change, negative = inhibition is inactive: -26.7%.
With `N#CCCN(C(=O)COC(=O)C(O)(c1ccccc1)c1ccccc1)c1ccc(F)cc1`, the activity change, negative = inhibition was inactive: -3.36%.
Under `CS(=O)(=O)c1cc([N+](=O)[O-])c2no[n+]([O-])c2c1` stands inactive: -21.9%.
Under `O=P(Nc1nccs1)(Oc1ccccc1)Oc1ccccc1` stands inactive: -9.49%.
With `O=P(Nc1nccs1)(c1ccccc1)c1nc2ccccc2s1` (stereo unspecified) the figure was inactive: -3.09%; with `CCOP1(=S)c2c(C)nn(CCC#N)c2N=C(c2ccccc2F)N1C` (stereo unspecified), inactive: -10.1%.
As to `O=C(O)COc1ccc([As](=O)(O)O)cc1[N+](=O)[O-]`, the activity change, negative = inhibition was inactive: -11.1%.
Under `Nc1ccccc1[As](=O)(O)c1ccccc1` stands inactive: -16.5%; under `O=P1(Nc2ncccn2)COc2ccccc2OC1`, inactive: -0.27%; under `O=[As](O)(c1cccs1)c1cccs1`, inactive: -22.5%.
With `Cc1ccc(OCC(=O)OC2CN3CCC2CC3)cc1` (stereo unspecified) the figure was inactive: -14.5%; with `NS(=O)(=O)c1cccc(NC(=O)COC(=O)C(O)(c2ccccc2)c2ccccc2)c1`, inactive: -18.8%; with `O=P1(Nc2ccc(Br)cn2)COc2ccccc2OC1`, inactive: -26.1%.
Under `Nc1cccc([As](=O)(O)c2ccccc2)c1` stands inactive: -17.9%; under `Cc1ccc(C(=O)OC2CN3CCC2CC3)cc1` (stereo unspecified), inactive: -19.5%; under `CC1CCC(C(C)C)C(OP(=O)(Nc2ccccn2)c2ccccc2)C1` (stereo unspecified), inactive: -13.4%.
As to `Cc1nn(-c2ccccc2)c2c1P(=O)(N1CCOCC1)N(C)C(c1ccccc1)=N2` (stereo unspecified), the activity change, negative = inhibition was inactive: -10.5%.
With `CCCC1OP(=O)(Nc2ccccc2)OCC1CC` (stereo unspecified) the figure was inactive: -12.8%.
Regarding `O=C(/C=C/c1ccccc1)OC1CN2CCC1CC2` (stereo unspecified), the activity change, negative = inhibition is inactive: -2.38%.
Under `CN(C)C1(CNC(=O)c2ccc(S(C)(=O)=O)cc2)CCCCC1` stands inactive: -4.18%.
With `COc1ccccc1CNC(=O)COC(=O)C(O)(c1ccccc1)c1ccccc1` the figure was inactive: -9.77%.
With `CC1(CBr)Cn2c(nc3ccccc3c2=O)S1` (stereo unspecified) the figure was inactive: -25%; with `CN(C(=O)Cc1ccc(Cl)c(Cl)c1)[C@@H]1CCCC[C@H]1N1CCCC1`, inactive: 13.8%; with `CC(C)/C=N\N=C(\N)N[N+](=O)[O-]`, inactive: -19.9%.
For the compound `CCOP(=O)(Nc1ccc(C)cn1)OCC`, the activity change, negative = inhibition is inactive: -24.2%.
With `CN(CCCl)Cc1cc(Cl)c(NC2=NCCN2)c(Cl)c1`, the activity change, negative = inhibition is inactive: 22.9%.
With `CCOP(=O)(NC(=NC(C)c1ccccc1)NC(C)c1ccccc1)OCC` (stereo unspecified) the figure was inactive: -20.6%; with `CCC1=CC2Cc3nc4ccc(Cl)cc4c(N)c3C(C1)C2` (stereo unspecified), inactive: -18%; with `O=P1(Nc2ccccn2)COc2ccccc2OC1`, inactive: -3.32%.
Under `CC(C)(C)C(=O)NC(Sc1ncccn1)C(Cl)(Cl)Cl` (stereo unspecified) stands inactive: 2.59%; under `Clc1n[nH]nc1-c1nn[nH][15n]1`, inactive: -6.92%; under `O=P1(N(CCCl)CCCl)NCCC(C(F)(F)F)O1` (stereo unspecified), inactive: -24.1%.
Under `CCOC(=O)c1ccc(NC(=O)C(C)(CCl)SC)cc1` (stereo unspecified) stands inactive: 1.41%; under `CSc1ccc(Nc2c([N+](=O)[O-])cc([N+](=O)[O-])cc2[N+](=O)[O-])cc1`, inactive: -8.92%.
For `O=C(OC1CN2CCC1CC2)c1cccc([N+](=O)[O-])c1` (stereo unspecified), the activity change, negative = inhibition was inactive: -21.2%.
With `CCC(C)N(CC(C)C)C(=S)SC(NC(C)=O)C(Cl)(Cl)Cl` (stereo unspecified) the figure was inactive: -23.1%; with `O=C(Nc1ccncc1[N+](=O)[O-])c1ccc([N+](=O)[O-])cc1[N+](=O)[O-]`, inactive: -10.7%.
With `O=C(COc1ccccc1)OC1CN2CCC1CC2` (stereo unspecified) the figure was inactive: -16%.
With `O=C(O)C(=O)c1ccc(N(CCCl)CCCl)cc1` the figure was inactive: -16.1%; with `CCOC(=O)Nc1cccc([As](=O)(O)O)c1`, inactive: -7.5%.
Take `O=[N+]([O-])c1ccc(Nc2ccc(Oc3ccc([N+](=O)[O-])cc3[N+](=O)[O-])cc2)c([N+](=O)[O-])c1`: the activity change, negative = inhibition is inactive: -22.2%.
Under `Cc1cc(SC(NC=O)C(Cl)(Cl)Cl)ncn1` (stereo unspecified) stands inactive: -4.7%; under `O=P(Nc1ccccn1)(c1cccc2ccccc12)c1cccc2ccccc12`, inactive: -29.8%.
Under `CC1CCNP(=O)(N(CCCl)CCCl)O1` (stereo unspecified) stands inactive: -10%; under `O=C(O)C(O)c1ccc(N(CCCl)CCCl)cc1` (stereo unspecified), inactive: -15.8%; under `CCOC(=O)Nc1ccc([As](=O)(O)O)c(O)c1`, inactive: -14.1%.
Regarding `Cc1cc(SC(NC(=O)c2ccccc2)C(Cl)(Cl)Cl)nc(C(C)C)n1` (stereo unspecified), the activity change, negative = inhibition is inactive: -3.91%.
For `CCCCOc1ccc(C(=O)NCC2(N3CCCCC3)CCCCC2)cc1OC`, the activity change, negative = inhibition is inactive: -10.6%.
Turning to `COP(=O)(OC)N1CC1c1ccccc1` (stereo unspecified), the activity change, negative = inhibition is inactive: -17.2%.
Under `COC(=O)C1(C)COP(=O)(N2CCCCCC2)OC1` (stereo unspecified) stands inactive: -8.94%.
With `CC(C)c1ccc(OP(=O)(Nc2ccccn2)Oc2ccccc2F)cc1` (stereo unspecified) the figure was inactive: -15.5%.
Under `ClCCSc1nnc(-c2cccnc2)o1` stands inactive: -17.3%; under `O=[N+]([O-])c1cc([N+](=O)[O-])c(-c2ccn[nH]2)s1`, inactive: -11%.
Consider `CC(C)NC(=O)NP(=O)(Oc1ccccc1)Oc1ccccc1`, for which the activity change, negative = inhibition is inactive: -2.97%.
Under `CCN(CC)C(=S)SC(NC=O)C(Cl)(Cl)Cl` (stereo unspecified) stands inactive: 5.36%; under `O=[N+]([O-])c1ccc(-c2cc([N+](=O)[O-])c(O)c([N+](=O)[O-])c2)cc1`, inactive: -12.6%.
With `COc1cc(C(=O)NCC2(N3CCOCC3)CCCCC2)ccc1OCC(C)C` the figure was inactive: -6.8%.
With `C[As](=O)(O)c1cccc(C(=O)O)c1` the figure was inactive: -9.98%; with `O=[As](O)(c1ccc(O)cc1)c1ccccc1O`, inactive: -9.97%.
Consider `Cc1ccc2nc3c(c(C)c2c1)CC(C(Cl)Cl)S3` (stereo unspecified), for which the activity change, negative = inhibition was inactive: -12%.
Regarding `Cc1ccc(OP(=O)(Nc2ccc([N+](=O)[O-])cn2)Oc2ccc(C)cc2)cc1`, the activity change, negative = inhibition was inactive: -0.963%.
With `COc1ccc(N/C(=N/P(=O)(N2CCOCC2)N2CCOCC2)N2CCOCC2)cc1`, the activity change, negative = inhibition is inactive: -14.2%.
With `O=[N+]([O-])c1cc(Oc2ccc([N+](=O)[O-])cc2C(F)(F)F)cc([N+](=O)[O-])c1` the figure was inactive: -6.83%; with `Cc1cc(=O)[nH]c(N[N+](=O)[O-])n1`, inactive: -6.15%.
Under `O=C(OC1CN2CCC1CC2)C12CC3CC(CC(C3)C1)C2` (stereo unspecified) stands inactive: -2.57%; under `Cc1c2c(nc3ccccc13)SC(C(Cl)Cl)C2` (stereo unspecified), inactive: -19.1%; under `COc1cc(I)ccc1[As](=O)(O)O`, inactive: -7.94%.
With `COc1ccc2nc(NP(=O)(c3ccccc3)c3ccccc3)sc2c1` the figure was inactive: -24.7%; with `O=P1(N(CCCl)CCCl)OCCCN1CCCl` (stereo unspecified), inactive: -5.3%.
With `Nc1cc(N)c2nonc2c1[N+](=O)[O-]`, the activity change, negative = inhibition was inactive: -15.7%.
With `O=C(NC(Sc1ccncn1)C(Cl)(Cl)Cl)c1ccccc1` (stereo unspecified) the figure was inactive: -6.94%.
With `Oc1ccccc1CNc1ccccn1` the figure was inactive: -20.4%; with `NC(=O)c1cc([N+](=O)[O-])cc([N+](=O)[O-])c1N`, inactive: -22.3%; with `Cc1ccc(N/C(=N/P(=O)(N2CCOCC2)N2CCOCC2)N2CCOCC2)cc1`, inactive: -25.3%.
Consider `Cc1ccc(OP(=O)(Nc2nccs2)Oc2ccc(C)cc2)cc1`, for which the activity change, negative = inhibition is inactive: -14.2%.
With `COc1ccccc1OP(=O)(Nc1ccc(C)cn1)Oc1ccccc1OC` the figure was inactive: -1.24%; with `CN1CCCC(OC(=O)C(c2ccccc2)c2ccccc2)C1` (stereo unspecified), inactive: -15.8%; with `Clc1ccc(Cl)c(NC2=NCC(CBr)S2)c1` (stereo unspecified), inactive: -15.4%.
With `CCN(N=Nc1nonc1N)c1nonc1N` the figure was inactive: -3.48%; with `CCCC1OP(N)(=O)OCC1CC` (stereo unspecified), inactive: -13%; with `CC(=O)Nc1ccc([As](=O)(O)O)cc1`, inactive: -14.6%.
With `O=C(O)c1ccccc1[As](=O)(O)O` the figure was inactive: -12.4%.
On to `O=P(Nc1nc2ccc(Cl)cc2s1)(c1ccccc1)c1ccccc1`, for which the activity change, negative = inhibition is inactive: -21.2%.
Under `CN(C)P(=O)(N(C)C)n1c(Nc2ccccc2)nnc1-c1ccccc1` stands inactive: -23.1%.
With `CN(C(=O)Cc1ccc(Cl)c(Cl)c1)[C@H]1CCCC[C@@H]1N1CCCC1` the figure was inactive: -13.1%; with `Cc1ccc(NP(=O)(Oc2ccccc2F)Oc2ccccc2F)nc1`, inactive: -3.39%.
